47 variants from the Human Domainome abundance scans (Beltran et al. 2025) can be followed below.

The labels stand for the following.
B1: Tyrosine-protein kinase ABL1, residues 64 to 120; numbered along this chain, P00519 (parent)
chain: NLFVALYDFVASGDNTLSITKGEKLRVLGYNHNGEWCEAQTKNGQGWVPSNYITPVN

± gives the uncertainty stated by the source.

This data set covers variants of B1. As to the kind of experiment: abundance fitness (aPCA) (normalised: wild type 0, dead -1); higher = more abundant; growth selection in yeast, the domain comes from the species named. Conditions: Homo sapiens.
Consider NLFVTLYDFVASGDNTLSITKGEKLRVLGYNHNGEWCEAQTKNGQGWVPSNYITPVN [A5T], for which the abundance fitness was -0.469 ± 0.18.
As for NLFVRLYDFVASGDNTLSITKGEKLRVLGYNHNGEWCEAQTKNGQGWVPSNYITPVN [A5R], the abundance fitness was -0.877 ± 0.12.
As for NLFVAAYDFVASGDNTLSITKGEKLRVLGYNHNGEWCEAQTKNGQGWVPSNYITPVN [L6A], the abundance fitness came out at 0.02 ± 0.065.
For NLFVAGYDFVASGDNTLSITKGEKLRVLGYNHNGEWCEAQTKNGQGWVPSNYITPVN [L6G], the abundance fitness was -0.086 ± 0.083.
In the case of NLFVAQYDFVASGDNTLSITKGEKLRVLGYNHNGEWCEAQTKNGQGWVPSNYITPVN [L6Q], the abundance fitness amounted to 0.028 ± 0.06.
To NLFVATYDFVASGDNTLSITKGEKLRVLGYNHNGEWCEAQTKNGQGWVPSNYITPVN [L6T] belongs 0.043 ± 0.11; to NLFVAMYDFVASGDNTLSITKGEKLRVLGYNHNGEWCEAQTKNGQGWVPSNYITPVN [L6M], -0.056 ± 0.13; to NLFVACYDFVASGDNTLSITKGEKLRVLGYNHNGEWCEAQTKNGQGWVPSNYITPVN [L6C], -0.592 ± 0.24.
NLFVAKYDFVASGDNTLSITKGEKLRVLGYNHNGEWCEAQTKNGQGWVPSNYITPVN [L6K]: the abundance fitness was -0.096 ± 0.12.
Regarding NLFVAFYDFVASGDNTLSITKGEKLRVLGYNHNGEWCEAQTKNGQGWVPSNYITPVN [L6F], the abundance fitness was -0.324 ± 0.2.
For NLFVAPYDFVASGDNTLSITKGEKLRVLGYNHNGEWCEAQTKNGQGWVPSNYITPVN [L6P], the abundance fitness was -0.94 ± 0.27.
As for NLFVARYDFVASGDNTLSITKGEKLRVLGYNHNGEWCEAQTKNGQGWVPSNYITPVN [L6R], the abundance fitness is -0.004 ± 0.07.
For NLFVAYYDFVASGDNTLSITKGEKLRVLGYNHNGEWCEAQTKNGQGWVPSNYITPVN [L6Y], the abundance fitness is -0.576 ± 0.15.
In the case of NLFVADYDFVASGDNTLSITKGEKLRVLGYNHNGEWCEAQTKNGQGWVPSNYITPVN [L6D], the abundance fitness is -0.035 ± 0.15.
Turning to NLFVAVYDFVASGDNTLSITKGEKLRVLGYNHNGEWCEAQTKNGQGWVPSNYITPVN [L6V], the abundance fitness is -0.051 ± 0.058.
As to NLFVAEYDFVASGDNTLSITKGEKLRVLGYNHNGEWCEAQTKNGQGWVPSNYITPVN [L6E], the abundance fitness came out at 0.013 ± 0.072.
For NLFVAIYDFVASGDNTLSITKGEKLRVLGYNHNGEWCEAQTKNGQGWVPSNYITPVN [L6I], the abundance fitness amounted to 0.359 ± 0.14.
Then NLFVAHYDFVASGDNTLSITKGEKLRVLGYNHNGEWCEAQTKNGQGWVPSNYITPVN [L6H], with -0.167 ± 0.2.
Then NLFVASYDFVASGDNTLSITKGEKLRVLGYNHNGEWCEAQTKNGQGWVPSNYITPVN [L6S], with -0.135 ± 0.077.
Then NAFVALYDFVASGDNTLSITKGEKLRVLGYNHNGEWCEAQTKNGQGWVPSNYITPVN [L2A], with -0.603 ± 0.16; and NSFVALYDFVASGDNTLSITKGEKLRVLGYNHNGEWCEAQTKNGQGWVPSNYITPVN [L2S], with -0.198 ± 0.12.
On to NEFVALYDFVASGDNTLSITKGEKLRVLGYNHNGEWCEAQTKNGQGWVPSNYITPVN [L2E], for which the abundance fitness is -0.241 ± 0.043.
On to NKFVALYDFVASGDNTLSITKGEKLRVLGYNHNGEWCEAQTKNGQGWVPSNYITPVN [L2K], for which the abundance fitness came out at 0.251 ± 0.14.
For the variant NHFVALYDFVASGDNTLSITKGEKLRVLGYNHNGEWCEAQTKNGQGWVPSNYITPVN [L2H], the abundance fitness was -0.513 ± 0.29.
For NMFVALYDFVASGDNTLSITKGEKLRVLGYNHNGEWCEAQTKNGQGWVPSNYITPVN [L2M], the abundance fitness is 0.128 ± 0.076.
For NGFVALYDFVASGDNTLSITKGEKLRVLGYNHNGEWCEAQTKNGQGWVPSNYITPVN [L2G], the abundance fitness was -0.352 ± 0.05.
Consider NYFVALYDFVASGDNTLSITKGEKLRVLGYNHNGEWCEAQTKNGQGWVPSNYITPVN [L2Y], for which the abundance fitness was -0.258 ± 0.35.
As to NQFVALYDFVASGDNTLSITKGEKLRVLGYNHNGEWCEAQTKNGQGWVPSNYITPVN [L2Q], the abundance fitness was -0.153 ± 0.11.
NWFVALYDFVASGDNTLSITKGEKLRVLGYNHNGEWCEAQTKNGQGWVPSNYITPVN [L2W]: the abundance fitness was -0.029 ± 0.078.
As for NNFVALYDFVASGDNTLSITKGEKLRVLGYNHNGEWCEAQTKNGQGWVPSNYITPVN [L2N], the abundance fitness is 0.348 ± 0.22.
For NVFVALYDFVASGDNTLSITKGEKLRVLGYNHNGEWCEAQTKNGQGWVPSNYITPVN [L2V], the abundance fitness is -0.486 ± 0.057.
On to NTFVALYDFVASGDNTLSITKGEKLRVLGYNHNGEWCEAQTKNGQGWVPSNYITPVN [L2T], for which the abundance fitness was -0.079 ± 0.052.
With NCFVALYDFVASGDNTLSITKGEKLRVLGYNHNGEWCEAQTKNGQGWVPSNYITPVN [L2C], the abundance fitness is -0.063 ± 0.078.
As for NIFVALYDFVASGDNTLSITKGEKLRVLGYNHNGEWCEAQTKNGQGWVPSNYITPVN [L2I], the abundance fitness turned out to be 0.291 ± 0.29.
On to NDFVALYDFVASGDNTLSITKGEKLRVLGYNHNGEWCEAQTKNGQGWVPSNYITPVN [L2D], for which the abundance fitness was -0.117 ± 0.14.
In the case of NPFVALYDFVASGDNTLSITKGEKLRVLGYNHNGEWCEAQTKNGQGWVPSNYITPVN [L2P], the abundance fitness is -0.522 ± 0.15.
As for NFFVALYDFVASGDNTLSITKGEKLRVLGYNHNGEWCEAQTKNGQGWVPSNYITPVN [L2F], the abundance fitness is 0.226 ± 0.14.
Turning to NRFVALYDFVASGDNTLSITKGEKLRVLGYNHNGEWCEAQTKNGQGWVPSNYITPVN [L2R], the abundance fitness is -0.037 ± 0.069.
Regarding SLFVALYDFVASGDNTLSITKGEKLRVLGYNHNGEWCEAQTKNGQGWVPSNYITPVN [N1S], the abundance fitness is -0.63 ± 0.21.
Then RLFVALYDFVASGDNTLSITKGEKLRVLGYNHNGEWCEAQTKNGQGWVPSNYITPVN [N1R], with -0.138 ± 0.14; and KLFVALYDFVASGDNTLSITKGEKLRVLGYNHNGEWCEAQTKNGQGWVPSNYITPVN [N1K], with -0.234 ± 0.14; and QLFVALYDFVASGDNTLSITKGEKLRVLGYNHNGEWCEAQTKNGQGWVPSNYITPVN [N1Q], with -0.205 ± 0.27.
To DLFVALYDFVASGDNTLSITKGEKLRVLGYNHNGEWCEAQTKNGQGWVPSNYITPVN [N1D] belongs -0.174 ± 0.38; to MLFVALYDFVASGDNTLSITKGEKLRVLGYNHNGEWCEAQTKNGQGWVPSNYITPVN [N1M], -0.541 ± 0.16; to YLFVALYDFVASGDNTLSITKGEKLRVLGYNHNGEWCEAQTKNGQGWVPSNYITPVN [N1Y], 0.467 ± 0.17.
As for GLFVALYDFVASGDNTLSITKGEKLRVLGYNHNGEWCEAQTKNGQGWVPSNYITPVN [N1G], the abundance fitness amounted to 0.307 ± 0.18.
For the variant WLFVALYDFVASGDNTLSITKGEKLRVLGYNHNGEWCEAQTKNGQGWVPSNYITPVN [N1W], the abundance fitness was -0.581 ± 0.14.
